Target: MMP-8 (Homo sapiens (Human), UniProt P22894)
Test: Enzyme inhibition studies, MMP-8 catalytic domain
Format: biochemical
Settings: linear noncompetitive or linear competitive mechanism as footnoted

By UniProt entry, the sequences of proteins in these tests, tags left out. Residues count along the entry.
UniProt P22894, 100-262: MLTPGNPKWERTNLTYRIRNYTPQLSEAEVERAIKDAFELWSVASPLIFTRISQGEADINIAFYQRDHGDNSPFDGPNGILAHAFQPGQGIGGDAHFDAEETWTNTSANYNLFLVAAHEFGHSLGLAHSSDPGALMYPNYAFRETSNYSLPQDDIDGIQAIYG

N=C(N)Nc1ccc(Oc2ccc(S(=O)(=O)CC3CS3)cc2)cc1 (stereo not shown)
Ki: 730 nM
